# Experimental data from patent US9694016B2 (Novartis AG, priority 2013, dated 2017).
# The chains behind the UniProt entries cited, without tags or fusion partners.
# UniProt P04049, whole entry Y340E/Y341E: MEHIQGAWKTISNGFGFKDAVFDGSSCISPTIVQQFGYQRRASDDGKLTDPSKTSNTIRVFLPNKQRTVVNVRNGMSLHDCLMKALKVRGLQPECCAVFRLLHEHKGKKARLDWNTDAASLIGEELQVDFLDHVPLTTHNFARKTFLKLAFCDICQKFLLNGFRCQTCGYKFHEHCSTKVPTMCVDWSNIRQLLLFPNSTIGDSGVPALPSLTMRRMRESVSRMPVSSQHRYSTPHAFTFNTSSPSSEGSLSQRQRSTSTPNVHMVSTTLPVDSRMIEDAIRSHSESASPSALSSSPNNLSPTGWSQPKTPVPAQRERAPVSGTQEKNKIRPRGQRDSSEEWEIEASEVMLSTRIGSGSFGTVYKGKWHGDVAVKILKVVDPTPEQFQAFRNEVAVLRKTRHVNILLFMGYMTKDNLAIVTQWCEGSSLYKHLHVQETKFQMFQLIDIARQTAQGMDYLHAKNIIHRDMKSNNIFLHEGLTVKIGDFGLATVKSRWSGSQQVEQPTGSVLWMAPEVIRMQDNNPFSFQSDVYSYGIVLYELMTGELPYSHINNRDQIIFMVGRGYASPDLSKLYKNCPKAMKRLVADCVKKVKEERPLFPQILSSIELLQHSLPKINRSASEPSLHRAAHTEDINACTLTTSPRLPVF
# Target: C-Raf FL (full-length C-Raf protein, Y340E and Y341E activating mutations) (Homo sapiens (Human), UniProt P04049, Y340E/Y341E)
# Format: biochemical
# Details: AlphaScreen, 60 min pre-incubation, 1 hour reaction; read-out: c-Raf FL IC-50
row,SMILES,IC50
1,"CCOc1nnc(-c2cc(NC(=O)c3ccnc(C(C)(C)O)c3)ccc2C)cc1N1CCOCC1 [Example 569, N-(3-(6-ethoxy-5-morpholinopyridazin-3-yl)-4-methylphenyl)-2-(2-hydroxypropan-2-yl)isonicotinamide]",0.8 nM
2,"CCOc1nnc(-c2cc(NC(=O)c3cccc(C(F)(F)F)c3)cnc2C)cc1N1CCOC[C@@H]1C [Example 571, (S)—N-(5-(6-ethoxy-5-(3-methylmorpholino)pyridazin-3-yl)-6-methylpyridin-3-yl)-3-(trifluoromethyl)benzamide]",0.8 nM
3,"CCOc1nnc(-c2cc(NC(=O)c3ccnc(C(C)(C)C#N)c3)ccc2C)cc1N1CCOC[C@@H]1C [Example 572, (S)-2-(2-cyanopropan-2-yl)-N-(3-(6-ethoxy-5-(3-methylmorpholino)pyridazin-3-yl)-4-methylphenyl)isonicotinamide]",1 nM
4,"CCOc1nnc(-c2cc(NC(=O)c3ccc(CNC)c(C(F)(F)F)c3)ccc2C)cc1N1CCOCC1 [Example 574, N-(3-(6-ethoxy-5-morpholinopyridazin-3-yl)-4-methylphenyl)-4-((methylamino)methyl)-3-(trifluoromethyl)benzamide]",0.8 nM
5,"CCNCc1ccc(C(=O)Nc2ccc(C)c(-c3cc(N4CCOCC4)c(OCC)nn3)c2)cc1C(F)(F)F [Example 575, N-(3-(6-ethoxy-5-morpholinopyridazin-3-yl)-4-methylphenyl)-4-((ethylamino)methyl)-3-(trifluoromethyl)benzamide]",0.9 nM
6,"CCOc1nnc(-c2cc(NC(=O)c3ccc(CN(C)C)c(C(F)(F)F)c3)ccc2C)cc1N1CCOCC1 [Example 576, 4-((dimethylamino)methyl)-N-(3-(6-ethoxy-5-morpholinopyridazin-3-yl)-4-methylphenyl)-3-(trifluoromethyl)benzamide]",1.1 nM
7,"Cc1ccc(NC(=O)c2ccnc(C(C)(C)O)c2)cc1-c1cc(N2CCOCC2)c(OC2CCOCC2)nn1 [Example 581, 2-(2-hydroxypropan-2-yl)-N-(4-methyl-3-(5-morpholino-6-((tetrahydro-2H-pyran-4-yl)oxy)pyridazin-3-yl)phenyl)isonicotinamide]",0.7 nM
8,"Cc1ccc(NC(=O)c2ccnc(C(C)(C)C#N)c2)cc1-c1cc(N2CCOCC2)c(OC2CCOCC2)nn1 [Example 584, 2-(2-cyanopropan-2-yl)-N-(4-methyl-3-(5-morpholino-6-((tetrahydro-2H-pyran-4-yl)oxy)pyridazin-3-yl)phenyl)isonicotinamide]",0.3 nM
9,"Cc1ccc(NC(=O)c2ccnc(C(C)(F)F)c2)cc1-c1cc(N2CCOCC2)c(OCCO)nn1 [Example 587, 2-(1,1-difluoroethyl)-N-(3-(6-(2-hydroxyethoxy)-5-morpholinopyridazin-3-yl)-4-methylphenyl)isonicotinamide]",0.3 nM
10,"Cc1ccc(NC(=O)c2ccnc(C(C)(C)F)c2)cc1-c1cc(N2CCOCC2)c(OCCO)nn1 [Example 588, 2-(2-fluoropropan-2-yl)-N-(3-(6-(2-hydroxyethoxy)-5-morpholinopyridazin-3-yl)-4-methylphenyl)isonicotinamide]",0.7 nM
11,"CCC(F)(F)c1cc(C(=O)Nc2ccc(C)c(-c3cc(N4CCOCC4)c(OCCO)nn3)c2)ccn1 [Example 589, 2-(1,1-difluoropropyl)-N-(3-(6-(2-hydroxyethoxy)-5-morpholinopyridazin-3-yl)-4-methylphenyl)isonicotinamide]",0.4 nM
12,"Cc1ccc(NC(=O)c2ccnc(C(C)(C)C#N)c2)cc1-c1cc(N2CCOCC2)c(OCCO)nn1 [Example 591, 2-(2-cyanopropan-2-yl)-N-(3-(6-(2-hydroxyethoxy)-5-morpholinopyridazin-3-yl)-4-methylphenyl)isonicotinamide]",0.6 nM

# The remaining lines, values ahead:
row,IC50,SMILES
1,0.3 nM,"CCOc1nnc(-c2cc(NC(=O)c3cnnc(C(F)(F)F)c3)ccc2C)cc1N1CCOCC1 [Example 570, N-(3-(6-ethoxy-5-morpholinopyridazin-3-yl)-4-methylphenyl)-6-(trifluoromethyl)pyridazine-4-carboxamide]"
2,0.2 nM,"CCOc1nnc(-c2cc(NC(=O)c3ccnc(C(C)(C)C#N)c3)ccc2C)cc1N1CCOCC1 [Example 573, 2-(2-cyanopropan-2-yl)-N-(3-(6-ethoxy-5-morpholinopyridazin-3-yl)-4-methylphenyl)isonicotinamide]"
3,0.2 nM,"Cc1ccc(NC(=O)c2ccnc(C(C)(C)F)c2)cc1-c1cc(N2CCOCC2)c(OC2CCOCC2)nn1 [Example 578, 2-(2-fluoropropan-2-yl)-N-(4-methyl-3-(5-morpholino-6-((tetrahydro-2H-pyran-4-yl)oxy)pyridazin-3-yl)phenyl)isonicotinamide]"
4,0.2 nM,"Cc1ccc(NC(=O)c2ccnc(C(C)(F)F)c2)cc1-c1cc(N2CCOCC2)c(OC2CCOCC2)nn1 [Example 579, 2-(1,1-difluoroethyl)-N-(4-methyl-3-(5-morpholino-6-((tetrahydro-2H-pyran-4-yl)oxy)pyridazin-3-yl)phenyl)isonicotinamide]"
5,0.1 nM,"Cc1ccc(NC(=O)c2cc(C(F)(F)F)ccn2)cc1-c1cc(N2CCOCC2)c(OC2CCOCC2)nn1 [Example 580, N-(4-methyl-3-(5-morpholino-6-((tetrahydro-2H-pyran-4-yl)oxy)pyridazin-3-yl)phenyl)-4-(trifluoromethyl)picolinamide]"
6,0.2 nM,"Cc1ccc(NC(=O)c2ccnc(S(C)(=O)=O)c2)cc1-c1cc(N2CCOCC2)c(OC2CCOCC2)nn1 [Example 582, N-(4-methyl-3-(5-morpholino-6-((tetrahydro-2H-pyran-4-yl)oxy)pyridazin-3-yl)phenyl)-2-(methylsulfonyl)isonicotinamide]"
7,0.3 nM,"Cc1ccc(NC(=O)c2cnnc(C(C)(C)C#N)c2)cc1-c1cc(N2CCOCC2)c(OC2CCOCC2)nn1 [Example 583, 6-(2-cyanopropan-2-yl)-N-(4-methyl-3-(5-morpholino-6-((tetrahydro-2H-pyran-4-yl)oxy)pyridazin-3-yl)phenyl)pyridazine-4-carboxamide]"
8,0.2 nM,"Cc1ccc(NC(=O)c2cc(C(F)(F)F)ccn2)cc1-c1cc(N2CCOCC2)c(OCCO)nn1 [Example 586, N-(3-(6-(2-hydroxyethoxy)-5-morpholinopyridazin-3-yl)-4-methylphenyl)-4-(trifluoromethyl)picolinamide]"
9,0.2 nM,"Cc1ccc(NC(=O)c2ccnc(C(F)F)c2)cc1-c1cc(N2CCOCC2)c(OC(C)C)nn1 [Example 593, 2-(difluoromethyl)-N-(3-(6-isopropoxy-5-morpholinopyridazin-3-yl)-4-methylphenyl)isonicotinamide]"
10,0.2 nM,"Cc1ccc(NC(=O)c2cc(C(F)(F)F)ccn2)cc1-c1cc(N2CCOCC2)c(OC(C)C)nn1 [Example 594, N-(3-(6-isopropoxy-5-morpholinopyridazin-3-yl)-4-methylphenyl)-4-(trifluoromethyl)picolinamide]"
11,0.2 nM,"Cc1ccc(NC(=O)c2ccnc(C(C)(C)F)c2)cc1-c1cc(N2CCOCC2)c(OC(C)C)nn1 [Example 595, 2-(2-fluoropropan-2-yl)-N-(3-(6-isopropoxy-5-morpholinopyridazin-3-yl)-4-methylphenyl)isonicotinamide]"
12,0.3 nM,"Cc1ccc(NC(=O)c2ccnc(C(C)(C)C#N)c2)cc1-c1cc(N2CCOCC2)c(OC(C)C)nn1 [Example 596, 2-(2-cyanopropan-2-yl)-N-(3-(6-isopropoxy-5-morpholinopyridazin-3-yl)-4-methylphenyl)isonicotinamide]"
